Source: patent US6586191B2 (dated 2003)

By UniProt entry, the sequences of proteins in these tests, tags left out. Where a name states a change or a piece, a line headed by the entry shows the natural chain unless it says otherwise.
UniProt P47211: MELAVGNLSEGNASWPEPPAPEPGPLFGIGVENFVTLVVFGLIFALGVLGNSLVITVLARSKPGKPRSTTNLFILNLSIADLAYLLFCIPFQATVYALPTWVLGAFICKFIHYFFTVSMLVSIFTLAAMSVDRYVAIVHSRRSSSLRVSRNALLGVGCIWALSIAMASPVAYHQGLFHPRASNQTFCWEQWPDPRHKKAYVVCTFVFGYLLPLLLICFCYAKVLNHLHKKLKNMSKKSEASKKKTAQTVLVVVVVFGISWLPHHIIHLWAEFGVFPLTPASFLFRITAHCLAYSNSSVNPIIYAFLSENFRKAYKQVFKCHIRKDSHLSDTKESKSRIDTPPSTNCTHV

Tests used:
human GALR2 receptor = molecular target: T1, human GALR2 receptor (Homo sapiens, UniProt O43603); test: competition binding vs porcine 125I-galanin, human GALR2 (BO29) transiently expressed in COS-7 membranes; conditions: read-out: Human GALR2 Ki
T1 sequence (O43603 1-387): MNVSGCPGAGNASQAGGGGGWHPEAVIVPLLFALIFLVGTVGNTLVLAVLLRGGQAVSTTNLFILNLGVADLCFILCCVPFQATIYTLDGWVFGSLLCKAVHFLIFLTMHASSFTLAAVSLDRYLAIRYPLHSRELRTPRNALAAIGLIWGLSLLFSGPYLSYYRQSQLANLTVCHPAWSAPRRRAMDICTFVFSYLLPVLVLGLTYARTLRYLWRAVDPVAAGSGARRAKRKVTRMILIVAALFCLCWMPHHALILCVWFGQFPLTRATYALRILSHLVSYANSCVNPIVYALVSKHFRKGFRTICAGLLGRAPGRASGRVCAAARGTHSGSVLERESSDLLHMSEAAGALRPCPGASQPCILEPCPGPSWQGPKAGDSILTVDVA

[1] = molecular target: cloned human GALR1 receptor (Homo sapiens, UniProt P47211); conditions: read-out: affinity (Ki vs. 125I-galanin); cited from earlier work

Substance: rat galanin
- Ki (human GALR2 receptor): 1 nM
- Ki [1]: ~1 nM
